Data on 1 substance can be found in publication PMC3790809.

In this data set the test system is Nc1ncnc2c1ncn2[C@@H]1O[C@H](COP(=O)(O)OP(=O)(O)OP(=O)(O)O)[C@@H](O)[C@H]1O. The data set can be described thus: purified protein. To be noted: 50 mM Tris pH 8.0, 10 mM MgCl2, 30 °C, 2 µM enzyme, monomer-dodecamer mixture, Hill coefficient 1.931±0.115.

As to “YsaN-His (YsaN; YE3544) (Yersinia enterocolitica subsp. enterocolitica 8081)”, the K0.5 worked out at 714 ± 14.84 µM.
